The target of test [1] is GABA-A receptor; anion channel. As to the kind of experiment: Binding affinity for Diazepam-Insensitive fraction of GABA-A benzodiazepine receptors. The class given is protein-complex assay, Rattus norvegicus.
Test [2] deals with GABA-A receptor; anion channel. As to the kind of experiment: Binding affinity for Diazepam-Sensitive fraction of GABA-A benzodiazepine receptors. The format is protein-complex assay, Rattus norvegicus.

We go through one compound from ChEMBL document CHEMBL1127014, “Synthesis and evaluation of imidazo[1,5-a][1,4]benzodiazepine esters with high affinities and selectivities at "diazepam-insensitive" benzodiazepine receptors” (J Med Chem, 1993).

Regarding `CCOC(=O)c1ncn2c1CN(C)C(=O)c1cc(N=[N+]=[N-])ccc1-2` [Ro-154513], the Ki in test [1] was determined as 3.1 nM; in test [2], 5.3 nM.
